One test has as its target plasmin (Homo sapiens, UniProt P00747). As to the kind of experiment: Determination of inhibition constants for plasmin. The following applies: read-out: Plasmin [Ki]; 25° C., substrate Chromozym PL, pH 8.0.
The next test has as its target plasma kallikrein (Homo sapiens, UniProt P03952). As to the kind of experiment: Determination of inhibition constants for PK. The note with it: read-out: PK [Ki]; 25° C., substrate S2302, pH 8.0.
A further test addresses Xa (Homo sapiens, UniProt P00742). As to the kind of experiment: Determination of inhibition constants for Xa. The note with it: read-out: Xa [Ki].
The target in the next test is Thrombin (Homo sapiens, UniProt P00734). As to the kind of experiment: Determination of inhibition constants for thrombin. The note with it: read-out: Thrombin [Ki].

The chains behind the UniProt entries cited, without tags or fusion partners. Residues count along the entry.
UniProt P00747, 581-810 limits assumed: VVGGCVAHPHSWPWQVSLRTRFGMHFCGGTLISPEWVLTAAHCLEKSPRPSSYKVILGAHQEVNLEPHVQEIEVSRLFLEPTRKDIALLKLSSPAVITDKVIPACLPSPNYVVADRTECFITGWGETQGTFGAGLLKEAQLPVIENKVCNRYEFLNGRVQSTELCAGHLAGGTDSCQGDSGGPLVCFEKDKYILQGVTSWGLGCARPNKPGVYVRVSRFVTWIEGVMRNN
UniProt P00747, 97-580 partner limits assumed: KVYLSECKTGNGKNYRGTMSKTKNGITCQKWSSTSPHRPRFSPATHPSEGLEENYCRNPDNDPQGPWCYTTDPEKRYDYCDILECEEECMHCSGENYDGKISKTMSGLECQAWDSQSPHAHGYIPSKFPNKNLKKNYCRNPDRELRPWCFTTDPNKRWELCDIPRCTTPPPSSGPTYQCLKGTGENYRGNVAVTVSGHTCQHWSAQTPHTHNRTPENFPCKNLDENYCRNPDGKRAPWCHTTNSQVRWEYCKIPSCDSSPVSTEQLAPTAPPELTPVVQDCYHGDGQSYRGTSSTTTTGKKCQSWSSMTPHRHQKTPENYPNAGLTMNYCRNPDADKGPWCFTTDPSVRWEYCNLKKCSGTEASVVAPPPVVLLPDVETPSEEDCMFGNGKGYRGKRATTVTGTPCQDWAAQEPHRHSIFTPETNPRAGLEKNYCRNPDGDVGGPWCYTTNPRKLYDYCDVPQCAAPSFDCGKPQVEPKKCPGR
UniProt P03952, 391-638 limits assumed: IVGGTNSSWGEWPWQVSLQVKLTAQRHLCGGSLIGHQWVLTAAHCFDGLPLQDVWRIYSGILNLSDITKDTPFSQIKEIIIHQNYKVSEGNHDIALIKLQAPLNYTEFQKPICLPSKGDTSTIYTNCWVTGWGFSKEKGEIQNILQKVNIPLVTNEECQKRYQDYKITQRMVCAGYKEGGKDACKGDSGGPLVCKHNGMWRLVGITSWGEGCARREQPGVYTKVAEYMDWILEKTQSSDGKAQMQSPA
UniProt P03952, 20-390 partner limits assumed: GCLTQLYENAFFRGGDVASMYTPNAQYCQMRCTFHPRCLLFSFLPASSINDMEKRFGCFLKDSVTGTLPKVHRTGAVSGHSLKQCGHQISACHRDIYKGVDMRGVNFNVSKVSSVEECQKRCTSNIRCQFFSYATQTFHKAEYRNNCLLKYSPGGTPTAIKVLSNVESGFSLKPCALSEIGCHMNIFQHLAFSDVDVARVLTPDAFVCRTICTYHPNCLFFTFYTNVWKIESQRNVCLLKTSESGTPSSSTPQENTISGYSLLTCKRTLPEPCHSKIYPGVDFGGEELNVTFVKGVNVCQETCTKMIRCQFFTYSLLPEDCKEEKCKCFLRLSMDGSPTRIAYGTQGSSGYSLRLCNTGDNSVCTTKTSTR
UniProt P00742, 41-179 limits assumed: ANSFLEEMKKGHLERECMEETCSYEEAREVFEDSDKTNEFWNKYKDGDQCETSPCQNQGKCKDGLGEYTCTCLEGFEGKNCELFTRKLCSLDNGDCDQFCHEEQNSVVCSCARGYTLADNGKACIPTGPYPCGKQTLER
UniProt P00742, 235-488 limits assumed: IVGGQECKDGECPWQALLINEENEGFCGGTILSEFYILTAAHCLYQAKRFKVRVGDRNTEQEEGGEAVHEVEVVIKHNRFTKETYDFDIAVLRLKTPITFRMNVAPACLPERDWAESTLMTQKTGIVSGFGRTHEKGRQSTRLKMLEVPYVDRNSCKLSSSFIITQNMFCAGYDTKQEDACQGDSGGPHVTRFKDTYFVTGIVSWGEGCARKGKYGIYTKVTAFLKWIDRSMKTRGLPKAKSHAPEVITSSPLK

Here are results for 3 compounds from patent US8410310B2, “Trypsin-like serine protease inhibitors, and their preparation and use” (The Medicines Company (Leipzig) GmbH, priority 2006, dated 2013).

Each structure is given as a SMILES string.

Regarding `CC(C)(C)OC[C@@H](NS(=O)(=O)Cc1ccccc1)C(=O)N[C@@H](Cc1ccc(C(=N)N)cc1)C(=O)NCc1ccc(C(=N)N)cc1`, the inhibition constant Ki (usually the dissociation constant of the complex between target and ligand, obtained from inhibition or displacement) was below 0.1 µM at plasmin, below 0.1 µM at plasma kallikrein, below 1 µM at Xa and below 1 µM on Thrombin.
Take `N=C(N)c1ccc(CNC(=O)[C@H](Cc2cccc(CN)c2)NC(=O)[C@@H](CCCc2ccccc2)NS(=O)(=O)Cc2ccccc2)cc1`: the Ki on plasmin was below 0.01 µM; at plasma kallikrein, below 0.01 µM; on Xa, below 0.1 µM; on Thrombin, below 1 µM.
On to `N=C(N)c1ccc(CNC(=O)[C@H](Cc2cccc(CN)c2)NC(=O)[C@@H](CCCc2ccccc2)NS(=O)(=O)Cc2cccc(C(=O)O)c2)c(F)c1`, for which the Ki is below 0.01 µM at plasmin, below 0.01 µM at plasma kallikrein, below 0.1 µM at Xa and above 1 µM on Thrombin.
